Values of other authors as cited in US11965206B2, “Method of dosing a patient with multiple drugs using adjusted phenotypes of CYP450 enzymes” (priority 2018, dated 2024).

The chains behind the UniProt entries cited, without tags or fusion partners.
UniProt P08684, whole entry: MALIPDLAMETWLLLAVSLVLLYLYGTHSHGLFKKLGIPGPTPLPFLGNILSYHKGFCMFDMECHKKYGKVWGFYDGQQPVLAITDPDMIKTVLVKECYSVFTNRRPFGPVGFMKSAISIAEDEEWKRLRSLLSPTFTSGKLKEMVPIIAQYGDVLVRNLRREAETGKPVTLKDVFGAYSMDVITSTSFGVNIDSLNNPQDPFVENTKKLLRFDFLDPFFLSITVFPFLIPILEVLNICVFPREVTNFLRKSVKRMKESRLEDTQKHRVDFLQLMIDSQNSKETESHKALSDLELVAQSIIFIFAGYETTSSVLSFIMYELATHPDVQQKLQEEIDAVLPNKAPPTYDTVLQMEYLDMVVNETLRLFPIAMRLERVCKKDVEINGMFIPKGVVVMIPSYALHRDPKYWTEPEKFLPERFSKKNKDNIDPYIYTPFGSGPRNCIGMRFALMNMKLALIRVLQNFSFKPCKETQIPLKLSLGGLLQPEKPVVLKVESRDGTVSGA
UniProt P10635, whole entry: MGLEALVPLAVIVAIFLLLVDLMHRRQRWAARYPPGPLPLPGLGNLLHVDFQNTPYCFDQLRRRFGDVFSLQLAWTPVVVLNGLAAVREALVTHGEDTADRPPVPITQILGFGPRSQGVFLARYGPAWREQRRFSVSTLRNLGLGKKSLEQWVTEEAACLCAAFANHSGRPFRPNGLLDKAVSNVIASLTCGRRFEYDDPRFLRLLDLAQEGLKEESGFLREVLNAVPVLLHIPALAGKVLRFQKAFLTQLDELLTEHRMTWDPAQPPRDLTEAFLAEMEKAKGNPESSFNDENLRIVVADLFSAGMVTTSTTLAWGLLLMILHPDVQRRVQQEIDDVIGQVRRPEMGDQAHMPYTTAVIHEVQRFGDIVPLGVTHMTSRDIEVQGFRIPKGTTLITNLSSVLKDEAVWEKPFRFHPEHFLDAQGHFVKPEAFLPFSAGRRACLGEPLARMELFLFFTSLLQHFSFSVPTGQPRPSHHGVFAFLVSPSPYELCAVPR

Columns and labels:
[1] = target: CYP450 enzyme 3A4 (Homo sapiens, UniProt P08684); details: found in drug databases
[2] = target: CYP450 enzyme 2D6 (Homo sapiens, UniProt P10635); details: found in drug databases

Row | SMILES | substrate for 3A4 [1] | strong, moderate or weak inhibitor of 2D6 [2]
1 | O=C(CCCN1CCC(O)(c2ccc(Cl)cc2)CC1)c1ccc(F)cc1 [Haldol] | substrate | 
2 | CNCCC(Oc1ccc(C(F)(F)F)cc1)c1ccccc1 (centres unmarked) [Prozac] |  | strong inhibitor
